Assay results reported in paper PMC3345137 (Toxicology and Applied Pharmacology, 2011).

Amino acid sequences for entries named in this document (tags omitted).
UniProt Q99685, whole entry: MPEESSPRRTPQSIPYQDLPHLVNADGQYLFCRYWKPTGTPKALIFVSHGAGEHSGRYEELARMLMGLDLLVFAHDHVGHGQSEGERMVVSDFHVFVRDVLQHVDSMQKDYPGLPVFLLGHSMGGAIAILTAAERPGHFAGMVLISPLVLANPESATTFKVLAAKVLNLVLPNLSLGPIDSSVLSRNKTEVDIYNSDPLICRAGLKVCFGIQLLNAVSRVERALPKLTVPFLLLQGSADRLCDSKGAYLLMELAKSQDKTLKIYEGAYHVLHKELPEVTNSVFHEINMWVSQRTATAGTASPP

Tests used:
Assay in all cases: biochemical
[1] = biological target: T1, Human recombinant CES1 (Carboxylesterase 1) (Homo sapiens, UniProt P23141)
T1 sequence (P23141 18-567): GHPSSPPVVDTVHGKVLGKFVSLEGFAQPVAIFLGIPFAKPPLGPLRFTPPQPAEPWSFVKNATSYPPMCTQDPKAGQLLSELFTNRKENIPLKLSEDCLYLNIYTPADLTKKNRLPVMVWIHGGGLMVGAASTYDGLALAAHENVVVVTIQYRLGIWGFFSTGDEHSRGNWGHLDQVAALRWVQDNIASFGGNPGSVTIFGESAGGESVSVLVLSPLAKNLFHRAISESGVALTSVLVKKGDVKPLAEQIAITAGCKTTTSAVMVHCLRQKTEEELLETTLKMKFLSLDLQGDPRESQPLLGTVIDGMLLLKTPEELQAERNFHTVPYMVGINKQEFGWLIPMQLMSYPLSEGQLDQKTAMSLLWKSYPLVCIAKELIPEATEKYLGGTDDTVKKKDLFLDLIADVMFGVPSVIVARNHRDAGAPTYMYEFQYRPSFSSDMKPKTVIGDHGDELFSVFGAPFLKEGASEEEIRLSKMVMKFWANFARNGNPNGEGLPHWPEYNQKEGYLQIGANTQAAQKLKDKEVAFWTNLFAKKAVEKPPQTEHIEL

[2] = biological target: T2, Human recombinant CES2 (Carboxylesterase 2) (Homo sapiens, UniProt O00748)
T2 sequence (O00748 27-559): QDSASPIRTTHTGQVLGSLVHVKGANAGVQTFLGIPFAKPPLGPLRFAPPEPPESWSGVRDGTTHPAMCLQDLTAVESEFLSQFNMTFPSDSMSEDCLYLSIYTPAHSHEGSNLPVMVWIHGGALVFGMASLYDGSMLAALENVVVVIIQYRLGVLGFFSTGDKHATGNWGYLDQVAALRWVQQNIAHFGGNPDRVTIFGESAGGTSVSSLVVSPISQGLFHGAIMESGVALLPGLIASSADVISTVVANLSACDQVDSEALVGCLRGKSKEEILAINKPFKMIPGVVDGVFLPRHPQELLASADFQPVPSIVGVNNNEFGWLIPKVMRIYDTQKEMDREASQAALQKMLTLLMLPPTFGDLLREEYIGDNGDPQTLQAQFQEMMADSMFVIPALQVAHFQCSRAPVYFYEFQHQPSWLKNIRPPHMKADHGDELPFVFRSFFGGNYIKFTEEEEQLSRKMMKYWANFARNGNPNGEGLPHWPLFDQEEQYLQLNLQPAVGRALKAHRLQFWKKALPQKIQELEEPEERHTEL

[3] = biological target: Human recombinant MGL (Monoacylglycerol lipase) (Homo sapiens, UniProt Q99685)

Row | SMILES | IC50 [1] [nM] | IC50 [2] [nM] | IC50 [3] [nM]
1 | CCOP(=O)(OCC)Oc1nc(Cl)c(Cl)cc1Cl [Chlorpyrifos Oxon, Chlorpyrifos oxon] | 0.15 ± 0.05 | 0.33 ± 0.05 | 5.1 ± 3.7
2 | COP(=O)(OC)Oc1ccc([N+](=O)[O-])cc1 [Methyl Paraoxon, Methyl paraoxon] | 4.8 ± 0.2 | 220 ± 50 | 1600 ± 960
3 | CCOP(=O)(OCC)Oc1ccc([N+](=O)[O-])cc1 [Paraoxon] | 0.38 ± 0.1 | 6.2 ± 0.3 | 120 ± 40
